Assay results taken from publication PMC3781056, “New Pyrazolopyrimidine Inhibitors of Protein Kinase D as Potent Anticancer Agents for Prostate Cancer Cells” (PLoS ONE, 2013).

Molecular target: T1, PKD1 (Homo sapiens, UniProt Q15139)
T1 sequence (Q15139 1-912): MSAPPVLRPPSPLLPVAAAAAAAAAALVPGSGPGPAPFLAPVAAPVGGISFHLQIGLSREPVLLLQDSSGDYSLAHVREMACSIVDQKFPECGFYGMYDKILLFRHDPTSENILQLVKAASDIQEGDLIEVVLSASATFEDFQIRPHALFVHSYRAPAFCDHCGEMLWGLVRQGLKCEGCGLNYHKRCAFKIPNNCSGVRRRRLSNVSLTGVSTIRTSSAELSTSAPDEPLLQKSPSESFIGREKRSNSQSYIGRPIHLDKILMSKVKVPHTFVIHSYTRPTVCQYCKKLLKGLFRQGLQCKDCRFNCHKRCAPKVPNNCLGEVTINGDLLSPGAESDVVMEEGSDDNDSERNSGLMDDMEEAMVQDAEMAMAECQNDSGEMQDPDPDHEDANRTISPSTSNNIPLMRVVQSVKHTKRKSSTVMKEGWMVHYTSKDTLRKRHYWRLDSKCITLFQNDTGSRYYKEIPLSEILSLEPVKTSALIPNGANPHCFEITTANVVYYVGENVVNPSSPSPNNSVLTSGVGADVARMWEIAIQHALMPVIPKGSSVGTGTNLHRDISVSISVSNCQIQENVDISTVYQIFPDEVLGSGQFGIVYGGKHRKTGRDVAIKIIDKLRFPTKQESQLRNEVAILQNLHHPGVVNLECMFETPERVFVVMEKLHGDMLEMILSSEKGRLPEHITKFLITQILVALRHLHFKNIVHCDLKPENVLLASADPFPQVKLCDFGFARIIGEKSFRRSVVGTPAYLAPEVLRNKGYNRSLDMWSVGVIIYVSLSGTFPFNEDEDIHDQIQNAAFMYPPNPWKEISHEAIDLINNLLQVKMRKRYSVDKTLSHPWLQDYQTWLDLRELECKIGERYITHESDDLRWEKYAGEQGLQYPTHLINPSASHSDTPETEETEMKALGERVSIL
Experiment: In vitro radiometric PKD1 screening assay at 1 µM
Conditions: targeted kinase inhibitor library screen, relative to DMSO

Substance: kb-NB142-70
- % PKD1 Inhibition: 88%
